Target: Tubulin alpha chain (Sus scrofa) (UniProt P02550)
Experiment: Compound is evaluated for tubulin polymerization (ratio of compound relative to paclitaxel (EC0.01).

The chains behind the UniProt entries cited, without tags or fusion partners.
UniProt P02550, whole entry, looked up: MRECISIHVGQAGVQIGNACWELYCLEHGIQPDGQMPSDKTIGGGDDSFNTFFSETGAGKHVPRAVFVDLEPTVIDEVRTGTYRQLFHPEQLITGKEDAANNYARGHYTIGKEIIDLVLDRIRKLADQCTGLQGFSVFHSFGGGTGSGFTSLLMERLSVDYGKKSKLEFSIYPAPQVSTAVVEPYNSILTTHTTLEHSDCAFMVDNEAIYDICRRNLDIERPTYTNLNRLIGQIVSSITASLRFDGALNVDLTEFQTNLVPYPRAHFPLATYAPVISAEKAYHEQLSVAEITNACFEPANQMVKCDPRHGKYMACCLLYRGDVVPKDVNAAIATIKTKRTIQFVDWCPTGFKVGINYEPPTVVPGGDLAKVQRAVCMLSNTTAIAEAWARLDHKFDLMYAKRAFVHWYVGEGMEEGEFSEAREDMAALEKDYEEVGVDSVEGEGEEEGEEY

CC(=O)O[C@H]1C(=O)[C@]2(C)[C@@H](O)CC3OC[C@@]3(OC(=O)C3CC3)[C@H]2[C@H](OC(=O)c2ccccc2)[C@]2(O)C[C@H](OC(=O)[C@H](O)[C@@H](NC(=O)c3ccccc3)c3ccccc3)C(C)=C1C2(C)C (stereo partly specified)
Ratio: 0.3

From ChEMBL document CHEMBL1128407 (J Med Chem, 1995)
